This note sets out measurements from patent publication US20070066543A1, “Treatment of tay sachs or sandhoff diseases by enhancing hexosaminidase activity” (The Hospital For Sick Children, priority 2003, published 2007).

Chains of the proteins cited; added tags and fusions are not shown. Lines headed by an entry give the natural chain unless they say otherwise; changes in a name come on top. Residues count along the entry.
UniProt P06865, 23-74 partner limits assumed: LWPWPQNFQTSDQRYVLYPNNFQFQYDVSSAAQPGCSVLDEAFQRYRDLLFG
UniProt P06865, 89-529 G269S: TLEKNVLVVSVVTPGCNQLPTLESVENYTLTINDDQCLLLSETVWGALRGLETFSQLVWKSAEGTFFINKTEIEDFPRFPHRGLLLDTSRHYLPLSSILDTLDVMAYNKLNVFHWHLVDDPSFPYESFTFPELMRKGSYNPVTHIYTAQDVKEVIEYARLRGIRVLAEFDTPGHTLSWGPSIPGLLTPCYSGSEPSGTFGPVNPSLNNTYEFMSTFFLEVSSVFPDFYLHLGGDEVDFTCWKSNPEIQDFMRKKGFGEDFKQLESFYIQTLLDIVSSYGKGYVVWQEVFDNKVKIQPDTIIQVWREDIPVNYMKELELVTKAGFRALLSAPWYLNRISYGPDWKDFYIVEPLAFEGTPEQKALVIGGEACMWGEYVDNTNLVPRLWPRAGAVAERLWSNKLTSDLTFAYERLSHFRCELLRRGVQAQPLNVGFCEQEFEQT
UniProt P07686, 50-107 partner limits assumed: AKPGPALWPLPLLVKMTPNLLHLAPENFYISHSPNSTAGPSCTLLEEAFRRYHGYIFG
UniProt P07686, 315-556 limits assumed: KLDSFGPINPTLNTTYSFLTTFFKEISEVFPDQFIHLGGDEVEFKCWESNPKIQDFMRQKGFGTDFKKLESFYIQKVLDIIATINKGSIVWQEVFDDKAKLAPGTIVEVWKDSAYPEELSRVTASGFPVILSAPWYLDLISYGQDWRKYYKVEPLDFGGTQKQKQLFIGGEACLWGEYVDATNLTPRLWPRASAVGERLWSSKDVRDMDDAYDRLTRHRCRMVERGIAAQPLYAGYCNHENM
UniProt P07686, 122-311 limits assumed: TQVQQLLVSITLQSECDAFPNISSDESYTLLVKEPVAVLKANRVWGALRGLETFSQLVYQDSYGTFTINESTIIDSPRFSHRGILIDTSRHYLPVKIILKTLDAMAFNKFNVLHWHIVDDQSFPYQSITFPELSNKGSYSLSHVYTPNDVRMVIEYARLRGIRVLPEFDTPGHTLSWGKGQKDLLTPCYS

In assay [1] the target is hexosaminidase A (G269S) in ATSD fibroblasts (Homo sapiens, UniProt P06865+P07686, G269S). Briefly: Hexosaminidase A activity (MUGS) in adult Tay-Sachs (ATSD, 17662) fibroblasts grown with compound. The following applies: for hydrolysis of MUGS in lysates from treated cells: five days of growth with compound; for hexosaminidase A activity with increasing incubation times: ATSD fibroblasts; for activity of hexosaminidase A: 5 days, varying concentrations (Example 11).

Assay [2] addresses hexosaminidase A subunits in ATSD fibroblasts (Homo sapiens, UniProt P06865+P07686, G269S). The assay is described as follows: Western blot of ATSD cell lysates with anti-hexosaminidase A antibody. In kind it is cell-based. To be noted: 5 days. As for the experimental part:
For western blot analysis, Cellulose acetate eletrophoresis, and to determine the increase in hexosaminidase A specific activity, ATSD fibroblasts were grown for 5 days in 6 well tissue culture plates (Falcon, 40 mm2) containing 1.5 mL a-MEM, FCS P/S media supplemented with/without the compounds to be evaluated. Subsequently, media were removed, cells were washed twice in PBS, and finally scraped into 1 mL of PBS. Following pelleting in microfuge, the cells were resuspended in 10 mM phosphate buffer pH 6.1 containing 5% glycerol and disrupted using by sonication (ARTEK Sonic Dimembrator, Farmington N.Y.), on ice with 4 pulses for 10 seconds at setting 6. Cleared lysates were prepared by microcentrifugation (Eppendorf) at maximum setting for 15 min at 4° C. and total protein concentration was determined using BCA protein assay (PIERCE) according to manufacturers instructions. Hexosaminidase A activity was determined using MUGS substrate at 37° C. for 1 hr as described above and expressed as nmoles of MU released/hr/mg of total protein.
Lysates containing 5 μg total protein were subjected to PAGE on a 10% bis:acrylamide gel, electrophoretically transferred to nitrocellulose (Schlicher and Schull), blotted with 5% non-fat dry skim milk powder in 25 mM Tris pH 7.5, 150 mM NaCl, 0.025% Tween 20 buffer overnight at room temperature. Blocked blots were incubated with rabbit anti-human hexosaminidase A polyclonal Ab, washed with blocking buffer, followed by incubation with anti-rabbit IgG peroxidase conjugated secondary Ab. Blots were developed using chemiluminescent substrate according to manufacturers protocol (Amersham) and recorded on BIOMAX X-ray film (KODAK).
17662 cells were grown in 6 well tissue culture dishes in medium with or without inhibitor for 6 days. Subsequently, medium was removed, cells were washed twice with PBS, scraped off into 1 ml PBS, centrifuged, and pellet was resuspended in 10 mM potassium phosphate buffer pH 6.1, 1% Triton X100. Half of the aliquot was used in a western blotting experiment and the other half was used to determine the MUGS activity of the sample. For western blotting, following PAGE, transfer to nitrocellulose and blocking in non-fat dry milk, the blot was incubated sequentially with polyclonal anti-rabbit hexosaminidase A antibody and goat anti-rabbit IgG peroxidase-conjugated secondary antibody (Amersham Biosciences). Antibody binding was visualized by ECL according to the manufacturer's instructions for Amersham ECL.

Assay [3] deals with human placental hexosaminidase B (Homo sapiens, UniProt P07686).
Assay [4] deals with hexosaminidase A in ATSD fibroblasts (Homo sapiens, UniProt P06865+P07686, G269S). The assay is described as follows: Specific activity of hexosaminidase A in lysate and lysosomal fraction of ATSD fibroblasts. The format is cell-based.
Setting [5] is: ATSD cells, various concentrations (FIGS. 15, 16).

Turning to `CC(=O)N[C@@H]1[C@@H](O)[C@@H](O)[C@@H](CO)O[C@H]1O` [GalNAc, N-acetyl-β-D-galactosamine], in assay [1] (chronic TSD fibroblasts), the “hydrolysis of MUGS in lysates from treated cells” value (“hydrolysis of MUGS in lysates” for short) was “increased”. For the same molecule, the “band at 56 kD, lysosomally processed α-subunit (Western blot), versus untreated cells” value (“band at 56 kD … versus untreated cells” below) in assay [2] was “increased amounts”.
For the molecule `CC1=NC2[C@@H](O)[C@@H](O)C(CO)O[C@H]2S1` (stereo partly shown) [NAGal-thiazoline (2.6), N-acetyl galactosamine-thiazoline], the “mode of inhibition of hexosaminidase B” value in assay [3] was “competitive inhibitors”.
Turning to `CC(=O)NC1CN2CCC(O)C2C(O)C1O` (stereo not shown) [ACAS, 6-acetamido-6-deoxy-castanospermine], the “persistence of restorative effect on hexosaminidase A activity after removal of the inhibitor” value in assay [1] (17662 cells, 25 μg/ml for 3 days, then inhibitor-free medium) is “at least 4 days”. Besides, the “hexosaminidase A activity” value in assay [1] (17662 cells, ACAS 4 days, MUGS) was “increased”; in assay [1] (setting [5]), “increased”. The “persistence of enhancing effect after removal of compound” value in assay [1] (ATSD fibroblasts grown 4 days with compound, then medium lacking it) is recorded as over 3 days. Moreover, the “hexosaminidase A activity with increasing incubation times” value in assay [1] (all concentrations of ACAS) is recorded as “continued to increase”. Besides, the “concentration still effective in enhancing hexosaminidase A activity” value in assay [1] (chronic TSD fibroblasts, five days) turned out to be 5 µM. Also, in assay [1] (chronic TSD fibroblasts), the “hydrolysis of MUGS in lysates” value was “increased”. For the same molecule, the “band at 56 kD … versus untreated cells” value in assay [2] is “increased amounts”.
As for `CC(=O)N[C@H]1CN[C@H](CO)[C@@H](O)[C@@H]1O` [AddNJ, 2-acetamido-1,2-dideoxynojirimycin], the “hydrolysis of MUGS in lysates” value in assay [1] (chronic TSD fibroblasts) is “increased”. For the same molecule, the “band at 56 kD … versus untreated cells” value in assay [2] is recorded as “increased amounts”.
As for `CC1=NC2[C@@H](O)[C@H](O)C(CO)O[C@H]2S1` (stereo partly shown) [NGT, N-acetylglucosamine-thiazoline], the “increase in specific hexosaminidase A activity” value in assay [4] (ATSD cells, 0.9 mM NGT, 5 days) was “eight fold”. For the same molecule, in assay [4] (ATSD fibroblasts, 250 μg/mL, 7 days, lysate), the “increase in hexosaminidase A (lysate)” value is on record as “approximately two fold”. The “activity of Hexosaminidase A/S (MUGS)” value in assay [1] is on record as “increased”. Moreover, the “activity of hexosaminidase A” value in assay [1] (ATSD cells) is reported as “increased”. Moreover, in assay [1] (setting [5]), the “hexosaminidase A activity” value is given as “increased”. Moreover, the “time of growth in normal medium after which effect was reduced to near background levels” value in assay [1] (ATSD fibroblasts grown 4 days with compound, then normal medium) turned out to be 2 days. The “hexosaminidase A activity with increasing incubation times” value in assay [1] (highest concentration of NGT (0.9 mM)) was “continue to increase”; in assay [1] (lower NGT concentrations (0.18 mM, 0.03 mM, 0.007 mM)), “peaked after seven days incubation, and plateaud or declined thereafter”. Besides, the “hydrolysis of MUGS in lysates” value in assay [1] (chronic TSD fibroblasts) was “increased”. Besides, the “band at 56 kD … versus untreated cells” value in assay [2] is recorded as “increased amounts”. The “mode of inhibition of hexosaminidase B” value in assay [3] is “competitive inhibitors”.
Regarding `CC(=O)OCC1OC2SC(C)=NC2C(OC(C)=O)C1OC(C)=O` (stereo not shown) [fully acetylated NGT], in assay [1] (ATSD cells), the “activity of hexosaminidase A” value is recorded as “increased”.
